In the library only some 2.3% were active in any assay of this set; here they are far more common.
Yeast UUG start: modulators of yeast start codon fidelity, primary screen, whole organism, S. cerevisiae, single point, plate reader | AID 602363, 2012 | actives 0.13% (n = 350,000) | activity score, % at 18.7 µM | S. cerevisiae UUG-firefly luciferase reporter, luminescence/redox ratio;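 active means replicate mean at a twofold rise or more, about +100% in these data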;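 further: firefly luciferase made from a UUG start codon reports start codon fidelity; reporter light over untreated wells divided by growth signal over untreated wells; some hits fall short of that in this replicate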
ASAP1 GAP inh: inhibitors of human ASAP1 ArfGAP activity; inhibition, % at 16.5 µM; Q9ULH1; ASAP1-stimulated ARF1 GTP hydrolysis, GDP FP detection; AID 624377; hit rate 0.19% among 360,000; in the data active means inhibition above about 25%;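 further: 0% = vehicle with enzyme and substrate and 100% = no enzyme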
NRP1-CendR mod: alters CendR peptide binding to human NRP-1 | inhibition, % at 25 µM | O14786 | hit rate 0.85% among 360,000 | FAM-RPARPAR peptide binding to NRP-1, fluorescence polarization | AID 602438;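 active means inhibition or corrected inhibition above about 18%, plus a signal ratio from 0.5 to 1.5, limit read from the data, passing the limit was not always enough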
MC4R barr agon: agonists of human melanocortin 4 receptor (MC4R) beta-arrestin; U2OS MC4R beta-arrestin complementation, luminescence; percent of melanotan II response, DMSO zero; activation, % at 8.9 µM; hit rate 0.98% among 360,000; AID 540308;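 active means activation above a per-plate cutoff, the mean activation of sample wells on that plate plus 3 SD, cut at about 8% in these data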
ARFGAP1 inh: inhibitors of rat ARFGAP1; Q62848; Arfgap1-stimulated ARF1 GTP hydrolysis, GDP FP detection; hit rate 0.26% among 360,000; inhibition, % at 16.5 µM;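 active means inhibition above a per-plate limit, mean inhibition of low control wells plus 3 SD, cut at about 25% in these data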;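 further: 0% = DMSO wells with enzyme and 100% = wells lacking Arfgap1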
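Assay system: Rat Arfgap1 GAP domain (His6, aa 1-136), purified enzyme | Buffer or medium: HEPES 25 mM pH 7.5, NaCl 150 mM, MgCl2, DTT | Schedule: GTP hydrolysis reaction 2 h at 25 °C | Signal: FP of antibody-bound GDP Alexa 633 tracer, ex 620/em 688 nm | Measure: Percent inhibition of Arfgap1-stimulated GTP hydrolysis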
MC4R antag cAMP: blocks human MC4R cAMP signaling; P32245; MC4R-expressing cells, MTII-stimulated cAMP, LANCE TR-FRET; inhibition, % at 6.5 µM; hit rate 0.48% among 360,000; AID 540295;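 active means inhibition above its plate's cutoff, the mean of tested wells on that plate plus 3 SD, cut at about 29% in these data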;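 further: 0% = Melanotan II alone and 100% = Melanotan II plus saturating MCL0020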
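System: U2OS-MC4R stable cell line; Technique: Eu-cAMP/anti-cAMP TR-FRET, emission 671 nm; Repeats: single well per compound; Also added: Melanotan II; Dosing: one concentration, 6.5 µM nominal; Schedule: 30-min compound, 1-h challenge, 1-h detection, room temperature.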
ARFGAP1 inh conf: rat ARFGAP1 inhibition, confirmed | ARFGAP1-stimulated ARF1 GTP hydrolysis, GDP tracer FP | hit rate 30% among 890 | inhibition, % at 16.5 µM | shares compounds with ARFGAP1 inh;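 active means average inhibition over triplicates above the hit cutoff set in the earlier primary screen, cut at about 25% in these data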;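 further: 0% = Arfgap1 plus ARF1-GTP with DMSO and 100% = wells lacking Arfgap1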
* hit, by the source's call; / = not tested or not shown.

no.	SMILES	Yeast UUG start	ASAP1 GAP inh	NRP1-CendR mod	MC4R barr agon
1	COc1cc(CN2CCNC(=O)C2CC(=O)N(C)CCN2CCOCC2)cc(OC)c1 (stereo unspecified)	-5.5	10.1	-2.7	0.9
2	COc1ccc(NC(=O)N(C)C[C@@H]2Oc3ccc(NC(=O)CCCN(C)C)cc3C(=O)N([C@H](C)CO)C[C@H]2C)cc1	6.5	/	/	/
3	COc1ccc(NC(=O)Cn2nnc(C(=O)Nc3ccc(F)c(Cl)c3)c2N)cc1	-21.0	10.9	3.1	-0.2
4	COc1ccc(Cl)cc1NC(=O)c1nnn(CC(=O)Nc2ccc3c(c2)OCO3)c1N	-8.8	17.5	1.5	1.2
5	C[C@H]1CCCCO[C@H](CN(C)S(=O)(=O)c2ccc(Cl)cc2)[C@@H](C)CN([C@@H](C)CO)C(=O)c2cc(NS(=O)(=O)c3cccs3)ccc2O1	5.3	/	/	/
6	O=C(Nc1cccc(S(=O)(=O)NCc2ccco2)c1)c1cc(-c2ccc(F)cc2)nc2ccccc12	-15.3	6.7	-7.1	0.8
7	COc1ccc(-c2cc(C(=O)Nc3cccc(S(=O)(=O)NCc4ccco4)c3)c3ccccc3n2)cc1OC	/	19.2	-22.5	-1.0
8	Cc1ccc(-n2nc3c(=O)n(CC(=O)NCc4ccccn4)nc(C)c3c2C)cc1	-17.1	-1.2	1.0	1.2

no.	ARFGAP1 inh	MC4R antag cAMP	ARFGAP1 inh conf
1	28.4*	13.7	-7.2
2	/	/	/
3	27.3*	7.0	35.9*
4	94.5*	2.0	132.5*
5	/	/	/
6	7.6	27.9	/
7	26.4*	16.3	22.2
8	-3.1	17.2	/

Reformatted: results already given
6: O=C(Nc1cccc(S(=O)(=O)NCc2ccco2)c1)c1cc(-c2ccc(F)cc2)nc2ccccc12
  Yeast UUG start = -15.3
  ASAP1 GAP inh = 6.7
  NRP1-CendR mod = -7.1
  MC4R barr agon = 0.8
  ARFGAP1 inh = 7.6
  MC4R antag cAMP = 27.9
  ARFGAP1 inh conf = /

7: COc1ccc(-c2cc(C(=O)Nc3cccc(S(=O)(=O)NCc4ccco4)c3)c3ccccc3n2)cc1OC
  Yeast UUG start = /
  ASAP1 GAP inh = 19.2
  NRP1-CendR mod = -22.5
  MC4R barr agon = -1.0
  ARFGAP1 inh = 26.4*
  MC4R antag cAMP = 16.3
  ARFGAP1 inh conf = 22.2

8: Cc1ccc(-n2nc3c(=O)n(CC(=O)NCc4ccccn4)nc(C)c3c2C)cc1
  Yeast UUG start = -17.1
  ASAP1 GAP inh = -1.2
  NRP1-CendR mod = 1.0
  MC4R barr agon = 1.2
  ARFGAP1 inh = -3.1
  MC4R antag cAMP = 17.2
  ARFGAP1 inh conf = /

The list continues.
no.	SMILES	Yeast UUG start	ASAP1 GAP inh	NRP1-CendR mod	MC4R barr agon
9	CCOc1ccc(CNC(=O)Cn2nc(C)c3c(C)n(-c4ccc(C)cc4)nc3c2=O)cc1	-13.3	6.5	3.6	-1.6
10	CC(=O)n1cc(/C=N/NC(=O)c2ccc(Cl)cc2)c2ccccc21	-7.3	2.5	0.1	-1.9
11	C[C@H](CO)N1C[C@H](C)[C@@H](CN(C)Cc2ccc(Cl)c(Cl)c2)OCCCC[C@H](C)Oc2ccc(NC(=O)Nc3cccc4ccccc34)cc2C1=O	1.1	/	/	/
12	Clc1ccc2c(N/N=C/c3ccccc3Br)ccnc2c1	-14.3	1.4	-6.7	5.9
13	Clc1ccc2c(N/N=C/c3cccc(Br)c3)ccnc2c1	-4.5	16.5	17.3	0.1
14	O=[N+]([O-])c1ccc(/C=N/Nc2ccnc3cc(Cl)ccc23)o1	-11.6	5.4	-76.6	-2.6
15	COc1ccc(N2CCN(c3nc(=S)n(-c4ccccc4)c(C)c3C(C)=O)CC2)cc1	17.2	13.9	-58.7	-1.1
16	CCn1c(C)c(C(C)=O)c(N2CCN(c3ccc(OC)cc3)CC2)nc1=S	/	2.1	-30.4	-2.1

no.	ARFGAP1 inh	MC4R antag cAMP	ARFGAP1 inh conf
9	33.6*	4.7	2.4
10	26.8*	27.1	-2.0
11	/	/	/
12	26.6*	14.5	25.6*
13	38.1*	5.9	62.6*
14	3.0	-7.5	/
15	-6.2	8.0	/
16	40.7*	5.2	2.8

Next structures follow.
no.	SMILES	Yeast UUG start	ASAP1 GAP inh	NRP1-CendR mod	MC4R barr agon
17	O=C1c2ccccc2C(=O)N1CCCc1c[nH]c2ccc(Cl)cc12	-10.9	1.9	-14.4	-0.3
18	Cc1ccc(S(=O)(=O)N[C@@H]2CC[C@H](CCNC(=O)CN3CCOCC3)O[C@H]2CO)cc1	-4.5	/	/	/
19	O=C1CCCN1c1cc(Cl)cc(Cl)c1	/	-0.8	-4.6	-0.7
20	O=C1CCN(Cl)C(=O)N1Cl	/	7.5	-5.2	/
21	Cc1ccc(C(=O)Nc2ccc3c(c2)C(=O)NC3=O)cc1	-18.1	13.2	0.2	0.2
22	COC(=O)c1ccc(C(=O)Nc2ccc3c(c2)C(=O)NC3=O)cc1	-13.2	13.8	-13.4	1.0
23	CC(=O)N(C)C[C@@H]1Oc2ncc(C#C[C@@H](C)O)cc2C(=O)N([C@@H](C)CO)C[C@@H]1C	10.4	/	/	/
24	C=CCn1c(C)nnc1SCC(=O)Nc1ccccc1C(=O)NC1CC1	-18.7	3.9	-2.6	-0.6
25	Nc1ccc2nc(-c3cccc(-c4nc5ccc(N)cc5[nH]4)c3)[nH]c2c1	/	7.8	-4.5	0.0
26	Nc1ccc(-c2nc3ccc(N)cc3[nH]2)cc1	/	-4.0	4.6	-4.5

no.	ARFGAP1 inh	MC4R antag cAMP	ARFGAP1 inh conf
17	32.9*	-0.7	15.2
18	/	/	/
19	-3.7	0.0	/
20	25.9*	/	1.5
21	25.2*	-2.0	-3.2
22	23.3	-1.5	/
23	/	/	/
24	24.7*	12.7	-2.8
25	60.2*	-24.4	106.1*
26	4.3	-5.6	/

Source: PubChem BioAssay (several laboratories)
